Test results published in US20100183563A1, “DENTINOGENESIS PROMOTER AND DENTINOGENIC PULP-CAPPING MATERIAL” (ORGAN TECHNOLOGIES, INC., priority 2007, published 2010).

Tested on: dental pulp stem cells (DPSCs)
Assay: Proliferation of dental pulp stem cells, cell number by the MTS method
Type: cell-based, human
Description: Dental pulp stem cells (DPSCs) were isolated in accordance with a method of Gronthos et al. (Proc. Natl. Acad. Sci. USA, 97: 13625-30, 2000) from a human extracted tooth that was submitted with informed consent under the permission of Okayama University Dental School Ethics Committee. […]
Specifically, the DPSCs prepared above (1) were cultured under 5% CO2 at 37° C. in α-MEM culture medium including 10% fetal bovine serum (FBS) containing SVS at a concentration of 1 μM, L-ascorbic acid (0.1 mM), L-glutamine (2 mM), penicillin (100 μg/ml), and streptomycin (100 μg/ml). The culture medium was exchanged twice a week, and the number of cells on […] was indirectly evaluated using the MTS method (Barltrop, J. A. et al. 5-(3-carboxymethoxyphenyl)-2-(4,5-dimenthylthiazoly)-3-(4-sulfophenyl)tetrazolium, inner salt (MTS) and related analogs of 3-(4,5-dimethylthiazolyl)-2,5-diphenyl-tetrazolium bromide (MTT) reducing to purple water-soluble formazans as cell-viability indicators. Bioorg. & Med. Chem. Lett. 1, 611, 1991). […]
Specifically, simvastatin (Calbiochem) (1 μM) as an HGM-CoA reductase inhibitor and the above-mentioned Fasudil (1 μM, 10 μM, and 100 μM) respectively were used to culture DPSCs in a manner similar to Example 1, section (2). On day 5 from the beginning of cultivation, the cell number of DPSCs was measured using the MTS method. […]

B1: BMP-2: bone morphogenetic protein (R&D systems) known to have a dentinogenesis inducing effect (protein, UniProt P12643 283-396, looked up)
Bone morphogenetic protein 2: QAKHKQRKRLKSSCKRHPLYVDFSDVGWNDWIVAPPGYHAFYCHGECPFPLADHLNSTNHAIVQTLVNSVNSKIPKACCVPTELSAISMLYLDENEKVVLKNYQDMVVEGCGCR
proliferation of dental pulp stem cells (DPSCs) (BMP-2 100 ng/ml, day 5 from the beginning of cultivation, vs control (PBS), significant increase, p<0.0070): 1.05 fold
effect on cellular proliferation of DPSCs compared with the control (day 5, Example 4, FIG. 9, statin = simvastatin 1 μM): an effect on cellular proliferation of DPSCs was not observed
